ERp5 inh = inhibitors of human ERp5; Q15084; ERp5 insulin aggregation, absorbance 650 nm, 90 min; inhibition, % at 9.99 µM; 350,000 compounds, 0.05% hits; AID 651711;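 active = mean replicate inhibition above about 25%, with every replicate also reaching it, limit read from the data, passing the limit was not always enough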
Yeast UUG start = alters start codon recognition fidelity in yeast. S. cerevisiae UUG-firefly luciferase reporter, luminescence/redox ratio. 350,000 tested, 0.13% active. activity score, % at 18.7 µM. AID 602363;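 active means replicate mean at a twofold rise or more, about +100% in these data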;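 further: firefly luciferase made from a UUG start codon reports start codon fidelity; reporter light over untreated wells divided by growth signal over untreated wells; some hits fall short of that in this replicate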
ARNT-TACC3 inh = disrupts binding between human ARNT and TACC3 | Q9Y6A5 | AlphaScreen His-ARNT PAS-B/GST-TACC3 binding, luminescence; TACC3 fragment carries E629A point mutation | inhibition, % at 9.99 µM | 390,000 compounds, 0.66% hits | AID 623870;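 active = mean inhibition of replicates at least 50% and at least half of replicates each reaching 50%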
FGF22 binding-1 = binders of recombinant human FGF22 by thermal shift; Q9HCT0; SYPRO orange fluorescence; percent of sucrose octasulfate shift, DMSO zero; activity (Tm shift, normalised), % at 9.99 µM; 340,000 compounds, 1.5% hits; AID 651658;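 active = mean Tm shift, scaled 0 neutral to 100 positive control, at about 1.3% or above, every replicate too, limit read from the data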
PglD inh = blocks C. jejuni PglD acetyltransferase activity. 360,000 compounds, 0.098% hits. inhibition, % at 12.5 µM. AID 602405. purified PglD enzyme, DTNB colorimetric CoA detection; in the data active = inhibition above about 16%, passing the limit was not always enough
PDI inh = inhibitors of human protein disulfide isomerase | P07237 | PDI insulin aggregation turbidity, A650, 90 min | inhibition, % at 10 µM | 350,000 compounds, 0.052% hits;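 active = mean inhibition across replicates of 30% or more, whatever share of single replicates reach that level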
FGF22 binding-2 = binders of human FGF22 by thermal shift; shares compounds with FGF22 binding-1; recombinant FGF22 thermal shift, SYPRO orange fluorescence; thermal shift activity, °C (ΔTm) at 38 µM; 1,000 compounds, 2% hits; AID 720646;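 active = fitted rise in melting shift crosses a set limit at or below the top valid dose tested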
FGF22 TSA = binders of human FGF22 by thermal shift | shares compounds with FGF22 binding-1 | Thermal shift assay, SYPRO orange, melting temperature shift | Tm shift (activity), % at 38 µM | 50 tested, under 10 active;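 active = compounds whose fitted dose curve of melting temperature shift rises past a set threshold within the tested doses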
SYPRO no-protein = compound-only SYPRO artifact for FGF22 binders. AC50, µM (highest dose often 38 µM). AID 743019. compound-only SYPRO orange thermal shift counter-screen, no protein. 1,000 compounds, 2% hits. shares compounds with FGF22 binding-1;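 active = rising signal whose fitted curve reaches the 0.54 level within the top valid dose, showing a melting point, actives reach about 13 µM in these data; inactive = the rest, including activity in the opposite direction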; note: value is where the raw curve crosses a fixed level and not half-maximal
Numbers stand for hits; i = inactive; nt = no result. Rows were chosen to be rich in hits. Some 1.9% of all compounds tested hit in one or more screens of this group.

SMILES | ERp5 inh | Yeast UUG start | ARNT-TACC3 inh | FGF22 binding-1 | PglD inh | PDI inh | FGF22 binding-2 | SYPRO no-protein | others
O=C(N/N=C/c1c[nH]c2ccccc12)c1ccc2c(c1)OCCO2 | i | i | i | 1.6 | i | i | i | i
O=C(N/N=C/c1c[nH]c2ccccc12)c1ccncc1 | i | nt | i | i | nt | i | nt | nt
O=C(NC1CCCCC1)N[C@H]1CC[C@H](CC(=O)N2CCOCC2)O[C@@H]1CO | i | i | i | i | i | nt | nt | nt
O=C(C[C@@H]1CC[C@@H](NC(=O)Nc2ccccc2F)[C@@H](CO)O1)NCc1ccc(F)cc1 | i | nt | nt | nt | nt | nt | nt | nt
CCc1nnc(NC(=O)CN2CCN(Cc3ccc(C)cc3)CC2)s1 | i | i | i | 1.7 | i | i | i | i
C[C@@H]1CCCCO[C@@H](CN(C)CC2CCCCC2)[C@@H](C)CN([C@@H](C)CO)C(=O)c2cc(NS(=O)(=O)c3cn(C)cn3)ccc2O1 | i | i | i | i | i | nt | nt | nt
Cn1ncc2c(Nc3ccc(Cl)c(Cl)c3)ncnc21 | i | i | i | 9.1 | i | i | i | i
COc1ccccc1C(=O)N1C[C@@H]2[C@H](c3ccccc31)[C@@H](CO)N2C(=O)C1CCCCC1 | i | i | nt | i | i | nt | nt | nt
COc1ccccc1C(=O)C1CCCN(C(=O)c2cc(C(C)C)no2)C1 (centres undefined) | i | i | i | i | i | i | nt | nt
COc1ccc(C(=O)C2CCCN(C(=O)c3cc(C(C)C)no3)C2)cc1F (centres undefined) | i | nt | nt | 9.8 | nt | i | i | i
CCC(=O)N1[C@H](CO)[C@@H](c2ccccc2)C12CN(C(=O)c1cnccn1)C2 | i | nt | nt | 1.3 | nt | nt | i | i
COCC(=O)N1CC2(C1)[C@H](c1ccccc1)[C@@H](CO)N2C(=O)NC1CCCC1 | i | nt | nt | 1.3 | nt | nt | i | i
C[C@@H]1CN([C@H](C)CO)C(=O)c2cccc(NC(=O)Nc3ccc(C(F)(F)F)cc3)c2O[C@@H]1CN(C)C(=O)Nc1ccc(C(F)(F)F)cc1 | i | i | i | i | i | nt | nt | nt
Oc1c(CN2CCOCC2)cc(CN2CCOCC2)c(O)c1O | i | i | 13 | 1.4 | i | i | i | i
C/C(=N\NC(=O)COc1ccc(C)cc1C(C)C)c1cc2ccccc2o1 | i | nt | i | 20 | nt | i | i | i
C[C@@H]1CN([C@H](C)CO)C(=O)c2cc(NC(=O)c3ccncc3)ccc2O[C@@H](C)CCCCO[C@H]1CN(C)Cc1ccc(C(F)(F)F)cc1 | i | i | i | i | i | nt | nt | nt
CC1C(=O)Nc2ccc(S(=O)(=O)NCCc3ccc(Cl)cc3)cc2NC1=O (centres undefined) | i | i | i | 1.6 | i | nt | i | i
CC1Sc2ccc(S(=O)(=O)NCCc3ccc(S(N)(=O)=O)cc3)cc2NC1=O (centres undefined) | i | i | i | i | i | i | nt | nt
COc1ccc(-c2ccc3c(c2)[C@@H]2[C@@H](CCN2S(=O)(=O)c2ccccc2F)[C@@H](CO)N3C)cc1 | i | i | i | i | i | nt | nt | nt
COc1cc(OC)cc(C(=O)Nc2nc3ccc(S(C)(=O)=O)cc3s2)c1 | i | i | i | 1.4 | i | i | i | i
C[C@H]1CN([C@@H](C)CO)C(=O)c2cc(C#CC3CCCCC3)cnc2O[C@H]1CN(C)S(C)(=O)=O | i | i | i | i | i | nt | nt | nt
c1ccc(Cc2nnc(-c3ccccc3)o2)cc1 | nt | i | i | nt | i | i | nt | nt
COc1ccc(Cc2nnc(-c3ccccc3)o2)cc1 | i | nt | i | 17 | nt | i | i | i
O=C(Nc1ccccc1)c1ccc(S(=O)(=O)N2CCCC2)cc1 | nt | i | i | nt | i | i | nt | nt
O=C(Nc1ccc(S(=O)(=O)N2CCCC2)cc1)c1ccccc1 | i | i | i | 1.6 | i | i | i | i | FGF22 TSA=i
SMILES | ERp5 inh | Yeast UUG start | ARNT-TACC3 inh | FGF22 binding-1 | PglD inh | PDI inh | FGF22 binding-2 | SYPRO no-protein | others
N#Cc1cccc(NC(=O)c2ccc(S(=O)(=O)N3CCOCC3)cc2)c1 | i | i | nt | 2.7 | i | i | i | i
N#Cc1cccc(NS(=O)(=O)c2ccc(S(=O)(=O)N3CCOCC3)cc2)c1 | i | i | i | i | i | i | nt | nt
O=C(Nc1ccc(S(=O)(=O)N2CCCC2)cc1)c1cccs1 | i | nt | i | 2.1 | nt | i | i | i | FGF22 TSA=i
CNC[C@H]1Oc2c(NS(=O)(=O)c3ccc(Cl)cc3)cccc2C(=O)N([C@@H](C)CO)C[C@@H]1C | i | i | i | i | i | nt | nt | nt
C/C=C/c1cnc2c(c1)C(=O)N([C@@H](C)CO)C[C@@H](C)[C@H](CN(C)S(=O)(=O)c1cn(C)cn1)O2 | i | nt | i | i | i | nt | nt | nt
CO[C@H]1CN(C)C(=O)c2ccc(NC(C)=O)cc2OC[C@H](C)N(C(=O)C2CCC2)C[C@H]1C | i | i | i | nt | i | nt | nt | nt
O=C(C[C@H]1CC[C@@H]2[C@H](COC[C@@H](O)CN2C(=O)Nc2ccc(F)cc2)O1)NCc1ccncn1 | i | i | i | i | i | nt | nt | nt
O=C(N/N=C/c1ccc(C(F)(F)F)cc1)c1ccc(O)cc1 | i | i | i | 2.4 | i | i | i | i | FGF22 TSA=i
O=C(N/N=C/c1cccc(C(F)(F)F)c1)c1ccc(O)cc1 | i | nt | i | i | nt | i | nt | nt
O=[N+]([O-])c1ccc2oc(/C=C/c3ccc(O)cc3)nc2c1 | i | i | nt | 1.8 | i | i | i | i
CC(C)(C)Nc1nc2cc([N+](=O)[O-])ccc2o1 | i | nt | i | i | nt | i | nt | nt
CC(C)C(c1nnnn1CCc1ccccc1)N1CCSCC1 (centres undefined) | i | nt | nt | 3.1 | nt | i | i | i
CC(C)C(c1nnnn1CCc1ccccc1)N1CCOCC1 (centres undefined) | nt | i | i | nt | i | i | nt | nt
O=C(C[C@H]1CC[C@H]2[C@@H](COC[C@@H](O)CN2C(=O)Nc2ccc(C(F)(F)F)cc2)O1)NCCc1ccncc1 | i | i | i | i | i | nt | nt | nt
Cc1nc2cc(NC(=O)CS(=O)(=O)c3ccccc3)ccc2s1 | i | i | nt | i | i | i | nt | nt
CC(=O)Nc1ccc2sc(C)nc2c1 | i | i | i | 38 | i | i | i | i
C/C=C/c1ccc(C2[C@H]3CNC[C@@H]2N3Cc2ccccc2OC)cc1 (some centres undefined) | i | nt | nt | nt | nt | nt | nt | nt
O=c1ccc2nc3ccccc3sc-2c1 | i | i | nt | 1.7 | i | nt | i | i
Brc1ccc(-c2nc3ccccc3s2)s1 | nt | i | i | nt | i | i | nt | nt
C[C@H]1CN([C@@H](C)CO)C(=O)Cc2cc(N(C)C)ccc2O[C@@H]1CN(C)S(=O)(=O)c1ccccc1 | i | nt | i | i | i | nt | nt | nt
N#CCc1nn(-c2ccccc2)c2ncnc(N)c12 | i | nt | i | 1.5 | nt | i | i | i

Source: PubChem BioAssay (Broad Institute)
